# Tested on: creeping bentgrass (Agrostis palustris) turf
# Conditions: 6 applications every two weeks, 8 visual ratings combined, trinexapac-ethyl 514, paclobutrazol 280, prohexadione-calcium 154, flurprimidol 15 g ai/ha, B Sure 19,091 ml/ha in mixtures
compound,measurement,value
CC(C)C(O)(c1ccc(OC(F)(F)F)cc1)c1cncnc1 (stereo not shown) [Flurprimidol],% Phytotoxicity,16%

# Source: patent publication US20240237646A1, “METHODS OF DECREASING PLANT INJURY AND IMPROVING CROP YIELD” (priority 2023, published 2024)
